Results published in patent US20250361219A1, “SYSTEMS AND METHODS FOR SEPARATION OF CHEMICAL SPECIES, SUCH AS CANNABINOIDS, USING MULTIPLE LIQUID PHASES” (priority 2022, published 2025).

Assays:
[1] = Current platform (10/5/5 DCM/methanol/water ratio)
[2] = Literature (10/6/4 DCM/methanol/water ratio); cited from earlier work

COc1cc(C(=O)O)ccc1O [Vanillic Acid, Vanillic acid]
αx/pHBA (selectivity) [1]: 2.77
αx/pHBA (selectivity) [2]: 2.21

Where two headings read alike, the source gives them in different places.
